Experimental data reported in article PMC10103840 (2023).

Tested on: human placental barrier
Settings: compound not detected in the fetal circuit

With `Cc1cc(O)c2c(=O)c3c(O)cc(O)c4c5c(O)cc(O)c6c(=O)c7c(O)cc(C)c8c1c2c(c34)c(c78)c65` [Hypericin, hypericin] the FM ratio was “zero”.
